Test results published in article PMC3030337 (The Journal of Biological Chemistry, 2010).

Key:
[1] = target: T1, PvGGPPS (P. vivax geranylgeranyl pyrophosphate synthase, PVX_092040) (Plasmodium vivax, UniProt A5K4U6, N206D/T113M); experiment: biochemical
[2] = target: T1, PvGGPPS (P. vivax geranylgeranyl pyrophosphate synthase, PVX_092040); experiment: biochemical; remark: listed apart in the source

## O=P(O)(O)C(O)(Cn1ccnc1)P(=O)(O)O [ZOL]
[1]
  Ki: 10.7 ± 1.2 nM
[2]
  IC50: 43.3 ± 3.3 nM
